{
  "sequences": {"note": "Amino acid sequences for entries named in this document (tags omitted). Residues count along the entry.", "UniProt O00187, 297-444": "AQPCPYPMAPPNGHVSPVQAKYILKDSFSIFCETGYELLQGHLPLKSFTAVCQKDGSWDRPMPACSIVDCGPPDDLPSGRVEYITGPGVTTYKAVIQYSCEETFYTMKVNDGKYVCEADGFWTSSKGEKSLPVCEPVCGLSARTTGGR", "UniProt O00187, 445-686": "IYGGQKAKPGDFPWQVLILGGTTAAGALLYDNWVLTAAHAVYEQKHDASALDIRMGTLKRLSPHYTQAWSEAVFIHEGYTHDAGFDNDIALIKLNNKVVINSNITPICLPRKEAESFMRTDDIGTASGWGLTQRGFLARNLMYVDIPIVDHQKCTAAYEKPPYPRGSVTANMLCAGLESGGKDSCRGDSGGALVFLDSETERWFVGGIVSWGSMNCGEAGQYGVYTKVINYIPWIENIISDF", "UniProt Q9JJS8, 444-685": "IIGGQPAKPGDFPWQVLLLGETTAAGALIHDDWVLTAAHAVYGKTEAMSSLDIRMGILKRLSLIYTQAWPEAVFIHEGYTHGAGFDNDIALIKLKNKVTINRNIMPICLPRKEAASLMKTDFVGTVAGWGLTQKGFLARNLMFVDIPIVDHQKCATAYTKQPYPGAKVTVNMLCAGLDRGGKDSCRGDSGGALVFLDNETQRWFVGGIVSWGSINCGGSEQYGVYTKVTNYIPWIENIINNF", "UniProt Q9JJS8, 296-443": "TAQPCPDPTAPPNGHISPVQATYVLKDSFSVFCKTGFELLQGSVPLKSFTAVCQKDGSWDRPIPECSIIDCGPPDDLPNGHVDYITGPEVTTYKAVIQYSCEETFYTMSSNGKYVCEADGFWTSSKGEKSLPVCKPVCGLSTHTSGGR"},
  "source": "patent US11667675B2",
  "about": "“MASP inhibitory compounds and uses thereof” (Bayer Aktiengesellschaft, priority 2019, dated 2023)",
  "key": {"human MASP1": {"target": "T1, human MASP1 (Homo sapiens, UniProt P48740)", "T1 construct": "Ig-kappa secretion signal (N, cleaved yes); made in house; host or cells: HEK293 (ATCC No. CRL-1573)", "T1 sequence (P48740 297-448)": "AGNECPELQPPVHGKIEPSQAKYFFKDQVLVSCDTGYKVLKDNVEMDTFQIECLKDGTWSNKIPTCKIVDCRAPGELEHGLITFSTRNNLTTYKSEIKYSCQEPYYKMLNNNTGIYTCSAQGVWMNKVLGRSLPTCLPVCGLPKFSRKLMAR", "T1 sequence (P48740 449-699)": "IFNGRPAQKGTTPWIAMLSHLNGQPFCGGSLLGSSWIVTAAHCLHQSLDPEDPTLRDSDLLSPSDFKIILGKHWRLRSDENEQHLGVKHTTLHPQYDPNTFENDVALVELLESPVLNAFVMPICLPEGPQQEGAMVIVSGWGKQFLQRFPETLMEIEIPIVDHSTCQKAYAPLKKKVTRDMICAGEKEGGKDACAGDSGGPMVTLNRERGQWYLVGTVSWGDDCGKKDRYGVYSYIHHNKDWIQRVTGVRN", "assay": "Biochemical human MASP1 assay (FRET substrate)", "conditions": "average IC50", "source_text": "(§1) 2.1 Recombinant Expression and Protein Production of Recombinant Human MASP1 and MASP2 Active Proteases.\n(§2) The MASP1 or MASP2 expression vectors were transfected into the HEK293 (ATCC No. CRL-1573) cell line using Lipofectamine LTX® Reagent (Thermo-Fischer), as described by the manufacturer. […] The MASP1 and MASP2 proteins were purified from the conditioned media by affinity chromatography on Ni-NTA Superflow resin (Qiagen) as described by the manufacturer.\n2.2 Biochemical Human MASP1 Assay\n(§3) Recombinant human MASP1 enzyme produced in the HEK 293 cells was diluted in the reaction buffer (50 mM HEPES pH 8,0; 100 mM NaCl; 0.01% CHAPS; 0.5 mM Gluthathione) to the concentration of 20 nM and 25 μl was transferred into each single well of 384-well white microtiter plate (Greiner Bio One 781075). 1 μl of the inhibitor compound solution (dissolved in DMSO, at the corresponding concentration) or pure DMSO as a control was added to the same wells. […] The microtiter plate was incubated for 60-120 min at the temperature of 32 C. The increase of fluorescence intensity was measured in appropriate fluorescence plate reader (e.g. TECAN Ultra) using excitation wavelength of 320 nm and emission wavelength of 420 nm. IC50 values were calculated from percentage of inhibition of human MASP1 activity as a function of test compound concentration."}, "human MASP2": {"target": "T2, human MASP2 (Homo sapiens, UniProt O00187)", "T2 construct": "Ig-kappa secretion signal (N, cleaved yes); made in house; host or cells: HEK293 (ATCC No. CRL-1573)", "assay": "Biochemical human MASP2 assay (FRET substrate)", "conditions": "average IC50", "source_text": "as §1, §2\n2.3 Biochemical Human MASP2 Assay\nas §3, with “MASP2” for “MASP1”, “340” for “320”, “490” for “420”"}, "rat MASP1": {"target": "T3, rat MASP1 (Rattus norvegicus, UniProt Q8CHN8)", "T3 construct": "Ig-kappa secretion signal (N, cleaved yes); made in house; host or cells: HEK293 (ATCC No. CRL-1573)", "T3 sequence (Q8CHN8 302-453 limits assumed)": "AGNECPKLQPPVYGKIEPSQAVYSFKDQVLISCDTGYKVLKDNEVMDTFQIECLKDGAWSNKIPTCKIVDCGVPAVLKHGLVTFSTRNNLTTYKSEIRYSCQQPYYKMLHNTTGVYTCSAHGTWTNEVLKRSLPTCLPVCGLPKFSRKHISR", "T3 sequence (Q8CHN8 454-704 limits assumed)": "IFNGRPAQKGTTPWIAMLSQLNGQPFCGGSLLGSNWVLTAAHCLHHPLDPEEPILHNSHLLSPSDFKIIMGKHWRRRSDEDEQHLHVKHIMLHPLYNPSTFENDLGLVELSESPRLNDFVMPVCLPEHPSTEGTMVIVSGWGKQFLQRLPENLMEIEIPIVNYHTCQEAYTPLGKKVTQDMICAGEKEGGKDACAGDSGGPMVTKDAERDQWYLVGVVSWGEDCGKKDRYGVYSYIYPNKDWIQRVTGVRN", "assay": "Biochemical rat MASP1 assay (FRET substrate)", "conditions": "average IC50; recombinant rat MASP1, FRET substrate", "source_text": "(§4) 4. Biochemical Rat MASP-1 and MASP-2 Assay\n(§5) 4.1 Recombinant Expression and Protein Production of Recombinant Human and Rat MASP1 and MASP2 Active Proteases.\nA truncated cDNA sequence of rat MASP1 encoding the fragment corresponding to the amino acids 302-704 with an C-terminal His Tag and N-terminal Ig-kappa secretion signal (SEQ ID No: 4) was subcloned into the mammalian expression vector pcDNA3.1 (Invitrogen).\n(§6) The MASP1 or MASP2 expression vectors were transfected into the HEK293 (ATCC No. CRL-1573) cell line using Lipofectamine LTX® Reagent (Thermo-Fischer), as described by the manufacturer. The mature form of the recombinant rat MASP1 and MASP2 proteases were secreted into the culture medium. The MASP1 and MASP2 proteins were purified from the conditioned media by affinity chromatography on Ni-NTA Superflow resin (Qiagen) as described by the manufacturer.\n4.2 Biochemical Rat MASP1 Assay.\nRecombinant rat MASP1 enzyme produced in the HEK 293 cells was diluted in the reaction buffer (50 mM HEPES pH 8,0; 100 mM NaCl; 0.01% CHAPS; 0.5 mM Gluthathione) to the concentration of 4 nM and 25 μl was transferred into each single well of 384-well white microtiter plate (Greiner Bio One 781075). 1 μl of the inhibitor compound solution (dissolved in DMSO, at the corresponding concentration) or pure DMSO as a control was added to the same wells. The enzymatic reaction was initiated by addition of 25 μl of 40 μM solution of the FRET substrate Dabcyl-[…]-Glu(Edans)-NH2 (SEQ ID NO: 8); (Dabcyl—4-((4-(dimethylamino)phenyl)azo)benzoic acid; Edans—5-[(2-Aminoethyl) amino]naphthalene-1-sulfonyl; custom synthesis by Jerini Peptide Technologies, Berlin) in the reaction buffer. The microtiter plate was incubated for 60-120 min at the temperature of 32 C. The increase of fluorescence intensity was measured in appropriate fluorescence plate reader (e.g. TECAN Ultra) using excitation wavelength of 340 nm and emission wavelength of 490 nm. IC50 values were calculated from percentage of inhibition of rat […] activity as a function of test compound concentration."}, "rat MASP2": {"target": "T4, rat MASP2 (Rattus norvegicus, UniProt Q9JJS8)", "T4 construct": "Ig-kappa secretion signal (N, cleaved yes); made in house; host or cells: HEK293 (ATCC No. CRL-1573)", "assay": "Biochemical rat MASP2 assay (FRET substrate)", "conditions": "average IC50; recombinant rat MASP2, FRET substrate", "source_text": "as §4, §5\nA truncated cDNA sequence of rat MASP2 encoding the fragment corresponding to the amino acids 296-685 with a C-terminal His Tag and N-terminal Ig-kappa secretion signal (SEQ ID No: 5) was subcloned into the mammalian expression vector pcDNA3.1 (Invitrogen).\nas §6\n4.3 Biochemical Rat MASP2 Assay.\nRecombinant rat MASP2 enzyme produced in the HEK 293 cells was diluted in the reaction buffer (50 mM HEPES pH 8,0; 100 mM NaCl; 0.01% CHAPS; 0.5 mM Gluthathione) to the concentration of 20 nM and 25 μl was transferred into each single well of 384-well white microtiter plate (Greiner Bio One 781075). 1 μl of the inhibitor compound solution (dissolved in DMSO, at the corresponding concentration) or pure DMSO as a control was added to the same wells. The enzymatic reaction was initiated by addition of 25 μl of 30 μM solution of the FRET substrate Abz-IEGRTSED-(Lys)Dnp-NH2 (SEQ ID NO: 9); (ABZ—2-aminobenzoyl; DNP_2,4-dinitrophenyl; custom synthesis by Jerini Peptide Technologies, Berlin) in the reaction buffer. The microtiter plate was incubated for 60-120 min at the temperature of 32 C. The increase of fluorescence intensity was measured in appropriate fluorescence plate reader (e.g. TECAN Ultra) using excitation wavelength of 320 nm and emission wavelength of 420 nm. IC50 values were calculated from percentage of inhibition of rat […] activity as a function of test compound concentration."}},
  "data": [
    {"substance": "((N-Me)G)-IC+SRSLP-(Oic)-I-(Pen)+I-((5-Azaspiro[2.4]heptane-1-carboxylic acid)OH [Example 164]", "values": [
      {"measurement": "IC50", "setting": "human MASP1", "result": 4, "unit": "nM"},
      {"measurement": "IC50", "setting": "human MASP2", "result": 57, "unit": "nM"},
      {"measurement": "IC50", "setting": "rat MASP1", "result": 79, "unit": "nM"},
      {"measurement": "IC50", "setting": "rat MASP2", "result": 28, "unit": "nM"}
    ]}
  ]
}
